From ChEMBL document CHEMBL1949519, “Probing human red cone opsin activity with retinal analogues” (J Nat Prod, 2011)
Activity calls are given as the source filed them. The calls are words filed in the database; no cut-off is given here.

Legend:
[1] = molecular target: T1, Long-wave-sensitive opsin 1 (Homo sapiens) (UniProt P04000); experiment: Agonist activity at human red cone opsin expressed in COS1 cells assessed as activation of transducer at 20 uM by radioactive filter binding assay; type: cell-based; settings: COS-1
T1 sequence (whole entry): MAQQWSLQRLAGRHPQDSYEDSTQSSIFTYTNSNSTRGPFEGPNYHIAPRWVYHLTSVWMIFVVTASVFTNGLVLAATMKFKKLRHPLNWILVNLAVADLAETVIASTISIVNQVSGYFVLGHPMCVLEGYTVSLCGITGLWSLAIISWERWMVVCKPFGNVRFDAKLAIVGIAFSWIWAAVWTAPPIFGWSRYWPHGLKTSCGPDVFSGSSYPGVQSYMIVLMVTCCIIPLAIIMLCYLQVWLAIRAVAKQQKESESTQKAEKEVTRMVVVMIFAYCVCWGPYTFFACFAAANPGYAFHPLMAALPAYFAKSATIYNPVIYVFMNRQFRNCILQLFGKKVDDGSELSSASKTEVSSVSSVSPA

[2] = molecular target: T1, Long-wave-sensitive opsin 1 (Homo sapiens); experiment: Inverse agonist activity at human red cone opsin expressed in COS1 cells assessed as transducer activity at 20 uM by radioactive filter binding assay; type: cell-based; settings: COS-1

| Activity [1] | Activity [2] | Compound |
| --- | --- | --- |
| Active |  | CC1=C(/C=C/C(C)=C/C=C/C(C)=C/C=O)C(C)(C)CCC1 |
|  | Active | CC1=C(/C=C/C(C)=C/C=C\C(C)=C\C=O)C(C)(C)CCC1 |
| Active |  | CC1=C(/C=C/C(C)=C/C=C/C(C)=C\C=O)C(C)(C)CCC1 |
